These results are taken from US12633374B2, “Method for determining efficacy of chemotherapy treatment for a subject” (RNA Diagnostics Inc., priority 2012, dated 2026).

The assay has as its system tumour sample. Description: Maximal RDI score in tumour biopsies of patients on neo-adjuvant Trastuzumab. It counts as in vivo, human. Particulars: after the first cycle, FIG. 17A and 17B. The procedure:
Biopsy samples before and after a treatment dose were obtained from patients undergoing neo-adjuvant therapy with Trastuzumab. RNA was isolated and analyzed using the Agilent Bioanalyzer. Electropherograms were analyzed using the methods 100 and 400 and the maximal RDI score was graphed for each tumour sample at each time-point.

As for Trastuzumab, the RDI values result is “increased in some patients”.
